Test results as given in patent US20260124309A1, “STAT6 DEGRADERS AND USES THEREOF” (Kymera Therapeutics, Inc., priority 2023, published 2026).

By UniProt entry, the sequences of proteins in these tests, tags left out. Residues count along the entry.
UniProt P42226, 123-632 limits assumed: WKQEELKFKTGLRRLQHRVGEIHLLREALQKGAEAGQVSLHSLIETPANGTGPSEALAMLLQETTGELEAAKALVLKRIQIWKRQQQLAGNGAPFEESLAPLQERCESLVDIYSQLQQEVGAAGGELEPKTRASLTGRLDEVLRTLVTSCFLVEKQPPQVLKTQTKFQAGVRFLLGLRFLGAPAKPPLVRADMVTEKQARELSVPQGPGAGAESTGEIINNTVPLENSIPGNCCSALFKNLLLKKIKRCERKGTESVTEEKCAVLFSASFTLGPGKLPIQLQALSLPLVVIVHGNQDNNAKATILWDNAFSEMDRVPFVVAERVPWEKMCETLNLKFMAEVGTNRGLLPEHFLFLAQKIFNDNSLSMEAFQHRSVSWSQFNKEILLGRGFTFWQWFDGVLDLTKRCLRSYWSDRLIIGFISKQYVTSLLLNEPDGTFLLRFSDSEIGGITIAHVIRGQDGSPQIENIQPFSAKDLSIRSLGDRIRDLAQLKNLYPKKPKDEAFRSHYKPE
UniProt P42226, whole entry: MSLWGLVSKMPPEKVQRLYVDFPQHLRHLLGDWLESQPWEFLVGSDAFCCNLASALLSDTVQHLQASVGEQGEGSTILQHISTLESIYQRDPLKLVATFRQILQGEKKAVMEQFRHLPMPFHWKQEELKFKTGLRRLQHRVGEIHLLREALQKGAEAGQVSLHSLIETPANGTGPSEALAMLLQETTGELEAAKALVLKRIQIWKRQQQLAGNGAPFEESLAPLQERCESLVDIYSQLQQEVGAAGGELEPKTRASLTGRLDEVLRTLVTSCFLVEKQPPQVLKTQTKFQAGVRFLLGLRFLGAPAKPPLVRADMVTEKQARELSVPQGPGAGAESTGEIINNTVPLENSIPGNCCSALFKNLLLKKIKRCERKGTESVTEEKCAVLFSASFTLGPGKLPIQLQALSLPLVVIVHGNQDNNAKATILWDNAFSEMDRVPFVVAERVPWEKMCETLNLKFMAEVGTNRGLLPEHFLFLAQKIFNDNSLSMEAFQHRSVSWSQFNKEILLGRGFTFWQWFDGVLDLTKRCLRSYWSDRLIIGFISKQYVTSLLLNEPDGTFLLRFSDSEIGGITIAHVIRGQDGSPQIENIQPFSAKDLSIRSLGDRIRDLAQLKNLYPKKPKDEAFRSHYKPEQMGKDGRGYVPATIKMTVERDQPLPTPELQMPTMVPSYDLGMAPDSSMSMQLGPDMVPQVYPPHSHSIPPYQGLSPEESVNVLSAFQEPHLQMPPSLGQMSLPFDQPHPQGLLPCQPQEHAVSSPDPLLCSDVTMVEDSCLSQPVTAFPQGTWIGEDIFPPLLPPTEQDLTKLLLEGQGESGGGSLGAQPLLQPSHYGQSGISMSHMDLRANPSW

Molecular target: biotinylated truncated STAT6 (123-632)-avi (Homo sapiens, UniProt P42226)
Assay: STAT6 HTRF binding assay
Settings: read-out: STAT6 HTRF: Average IC50; HTRF binding, 0.15 nM biotinylated truncated STAT6 (123-632)-avi, 20 nM fluorescein-labeled probe
Experimental: HTRF binding assays were performed using 0.15 nM biotinylated truncated STAT6 (123-632)-avi purified from E. coli, 1× Streptavidin-terbium (CisBio) prepared by mixing SA-Tb in PPI detection buffer (CisBio), 20 nM proprietary fluorescein-labeled probe, and test compounds in assay buffer consisting of 50 mM HEPES-Na pH 7.5, 100 mM NaCl, 1 mM EDTA, 2 mM DTT, 0.1% Tween-20 with a final volume of 20 uL. Compound stocks were dissolved at 10 mM in 100% DMSO and 11 point titration with 3 fold serial dilution was performed in white, opaque 384 well microplates. Reaction plates were incubated at room temperature for 30 minutes. Plates were centrifuged at low rpm for 5 mins, and the ratio of fluorescence intensities were measured at emission wavelengths for fluorescein acceptor (520 nm) and terbium donor (495 nm) on Envision Plate reader. % Inhibition was calculated from the 520/495 ratio generated by using proprietary positive control compound for 100% inhibition and DMSO only reactions for 0% inhibition. Data was processed and dose response curves were generated using GraphPad Prism to determine the concentration required for inhibiting 50% of the HTRF signal (IC50).
The letter codes for IC50 (μM) include: A (<0.1 μM); B (0.1-1 μM); C (>1-10 μM); D (>10-100 μM); E (>100 μM); and F (not tested).

Structure (SMILES) | IC50
COc1cc(N2CCN(CCOCCOCCOCCOCCc3ccc(C(=O)c4[nH]cc(C(=O)N[C@@H](CC(N)=O)c5cccc(Cl)c5)c4-c4c(F)ccc(F)c4C)cc3)CC2)ccc1-c1cc(C2=CCCN(C(=O)CCn3ccnn3)C2)c(F)c2[nH]c(C(=O)N(C)C)cc12 | < 100 nM
COc1cc(N2CCN(CCCCCCCCC3CCN(c4ccnc(N5CC[C@@H]6[C@H]5CCCN6c5cccc(F)c5)c4)CC3)CC2)ccc1-c1cc(C2=CCCN(C(=O)CCn3ccnn3)C2)c(F)c2[nH]c(C(=O)N(C)C)cc12 | < 100 nM
COc1cc(N2CCN(CCOCCOCCOCCOCCc3c(N4CCCCC4)ccnc3N3CC[C@@H]4[C@H]3CCCN4c3cccc(F)c3)CC2)ccc1-c1cc(C2=CCCN(C(=O)CCn3ccnn3)C2)c(F)c2[nH]c(C(=O)N(C)C)cc12 | < 100 nM
COc1cc(N2CCN(CCOCCOCCOCCC3CCN(c4ccnc(N5CC[C@@H]6[C@H]5CCCN6c5cccc(F)c5)c4)CC3)CC2)ccc1-c1cc(C2=CCCN(C(=O)CCn3ccnn3)C2)c(F)c2[nH]c(C(=O)N(C)C)cc12 | < 100 nM
COc1cc(N2CCN(CCCCCC[C@H]3[C@@H]4C[C@H]3CN(c3ccnc(N5CC[C@@H]6[C@H]5CCCN6c5cc(F)cc(COC(N)=O)c5)c3)C4)CC2)ccc1-c1cc(C2=CCCN(C(=O)CCn3ccnn3)C2)c(F)c2[nH]c(C(=O)N(C)C)cc12 | < 100 nM
COc1cc(N2CCN(CCCCCCCCCCCCc3ccc(C(=O)c4c(-c5c(F)ccc(F)c5C)c(C(=O)N[C@@H](CS(C)(=O)=O)c5cccc(Cl)c5)cn4C)cc3)CC2)ccc1-c1cc(C2=CCCN(C(=O)CCn3ccnn3)C2)c(F)c2[nH]c(C(=O)N(C)C)cc12 | < 100 nM
COc1cc(N2CCN(CCOCCOCC[C@@H]3CN(c4cc(N5CCCCC5)ccn4)[C@@H]4CCCN(c5cccc(F)c5)[C@H]34)CC2)ccc1-c1cc(C2=CCCN(C(=O)CCn3ccnn3)C2)c(F)c2[nH]c(C(=O)N(C)C)cc12 (single isomer, unassigned) | < 100 nM
COc1cc(N2CCN(CCCCCC[C@@H]3[C@@H]4C[C@H]3CN(c3ccnc(N5CC[C@@H]6[C@H]5CCCN6c5cc(F)cc(COC(N)=O)c5)c3)C4)CC2)ccc1-c1cc(C2=CCCN(C(=O)CCn3ccnn3)C2)c(F)c2[nH]c(C(=O)N(C)C)cc12 | < 100 nM
COc1cc(N2CCN(CCOCCOCCc3ccc(C(=O)c4[nH]cc(C(=O)NC(CC(N)=O)c5cccc(Cl)c5)c4-c4c(F)ccc(F)c4C)cc3)CC2)ccc1-c1cc(C2=CCCN(C(=O)CCn3ccnn3)C2)c(F)c2[nH]c(C(=O)N(C)C)cc12 (stereo not shown) | < 100 nM
COc1cc(N2CCN(CCOCCOCCOCCOCCC3CCCCN3c3ccnc(N4CC[C@@H]5[C@H]4CCCN5c4cccc(F)c4)c3)CC2)ccc1-c1cc(C2=CCCN(C(=O)CCn3ccnn3)C2)c(F)c2[nH]c(C(=O)N(C)C)cc12 (stereo partly shown) | < 100 nM
COc1cc(N2CCN(CCOCC[C@@H]3CN(c4cc(N5CCCCC5)ccn4)[C@@H]4CCCN(c5cccc(F)c5)[C@H]34)CC2)ccc1-c1cc(C2=CCCN(C(=O)CCn3ccnn3)C2)c(F)c2[nH]c(C(=O)N(C)C)cc12 (single isomer, unassigned) | < 100 nM
COc1cc(N2CCN(CCCCCCC#Cc3ccc(C(=O)c4c(-c5c(F)ccc(F)c5C)c(C(=O)N[C@@H](CS(C)(=O)=O)c5cccc(Cl)c5)cn4C)cc3)CC2)ccc1-c1cc(C2=CCCN(C(=O)CCn3ccnn3)C2)c(F)c2[nH]c(C(=O)N(C)C)cc12 | < 100 nM
COc1cc(N2CCN(CCCC3CCN(c4ccnc(N5CC[C@@H]6[C@H]5CCCN6c5cccc(F)c5)c4)CC3)CC2)ccc1-c1cc(C2=CCCN(C(=O)CCn3ccnn3)C2)c(F)c2[nH]c(C(=O)N(C)C)cc12 | < 100 nM
COc1cc(N2CCN(CCOCCOCCOCCOCCOCCc3ccc(C(=O)c4[nH]cc(C(=O)N[C@@H](CC(N)=O)c5cccc(Cl)c5)c4-c4c(F)ccc(F)c4C)cc3)CC2)ccc1-c1cc(C2=CCCN(C(=O)CCn3ccnn3)C2)c(F)c2[nH]c(C(=O)N(C)C)cc12 | < 100 nM

Molecular target: STAT6 (Homo sapiens, UniProt P42226)
Assay: STAT6 MSD degradation in A549 cells
Settings: not given
Experimental: Degradation of STAT6 in cells was quantitatively measured using Meso Scale Discovery (MSD) technology. A549 cells were seeded in 96-well plates with a density of 1.5×10e4 to 5×10e5 cells per well in 100 μl fresh media. Compounds were then added to the assay plates with a final top concentration of up to 10 uM in a 1:3 dilution series with total of 9 doses. The assay plates were then incubated for 4 to 24 hours at 37° C. under 5% CO2. The assay plates were then centrifuged for 5 minutes and the cell pellets were treated with 100 μl/well RIPA lysis buffer (Boston Bioproducts, BP-115D) with protease and phosphatase inhibitors (Roche, 05892791001 and 04906837001). To prepare the MSD assay plates (MSD, L15XA), the plates were coated with the capture antibody (Abnova, H00006778) in PBS, at 40 μl/well. The plates were then incubated overnight at 4° C., washed 1 time with 150 μl/well TBST buffer (Cell Signaling Technology, #9997S) and blocked with 150 μl/well blocking buffer (MSD, R93BA-4). Cell lysates were then added to MSD assay plates and the plates were incubated at room temperature for 1 hour. The plates were then washed 3 times with 150 μl/well TBST buffer and 25 μl/well primary detection antibody (Cell Signaling Technology, #5397S). The assay plates were then incubated at room temperature for 1 hour, washed 3 times with 150 μl/well TBST buffer, and 25 μl/well secondary detection antibody, SULFO-TAG anti-rabbit antibody (MSD, R32AB-1) were added. The assay plates were then incubated at room temperature for 1 hour, washed 3 times with 150 μl/well TBST buffer, and 150 μl/well MSD reading buffer (MSD, R92TC-2) were added. The plates were then analyzed by an MSD reader. The data was analyzed by GraphPad Prism and the dose dependent STAT6 degradation was fit using the four-parameter inhibitor vs. response nonlinear regression.
The letter codes for DC50 (nM) include: A (<1 nM); B (1-10 nM); C (>10-100 nM); D (>100-1000 nM); E (>1000 nM); and F (not tested). The letter codes for Dmax (oo) include: A (>90%); B (>70-90%); C (>50-70%); D ([…]); and F (not tested).

Structure (SMILES) | STAT6 MSD degradation Dmax % 24 h
COc1cc(N2CCN(CCCCCCCCCCCN(C(=O)[C@H]3CCCN(c4cncc5ccccc45)C3)c3ccc(=O)n(CC(=O)O)c3)CC2)ccc1-c1cc(C2=CCCN(C(=O)CCn3ccnn3)C2)c(F)c2[nH]c(C(=O)N(C)C)cc12 | B (B (>70-90%))

Same assay, conditions: read-out: STAT6 MSD degradation DC50 (nM) 24 h

Structure (SMILES) | DC50
COc1cc(N2CCN(CCCCCCCCCCCN(C(=O)[C@H]3CCCN(c4cncc5ccccc45)C3)c3ccc(=O)n(CC(=O)O)c3)CC2)ccc1-c1cc(C2=CCCN(C(=O)CCn3ccnn3)C2)c(F)c2[nH]c(C(=O)N(C)C)cc12 | 10 to 100 nM
